Assay results reported in patent US20210046160A1 (Synthorx, Inc., priority 2019, published 2021).

Legend:
Human whole blood = assay: Whole blood cytokine release assay (MSD U-plex: IFN-γ, IL-4, IL-5, IL-6, IL-8, TNF-α); type: cell-based; details: normalized by formulation buffer value
Method: Cytokines released from the whole blood after treatment into the supernatant were measured using the Meso Scale Discovery (MSD) U-plex kit for six analytes (IFN-γ, IL-4, IL-5, IL-6, IL-8, TNF-α).
Blood in heparin tubes from 6 healthy donors were obtained from The Scripps Research Institute (TSRI; San Diego, Calif.) blood donor service. Samples were tested on the day of the collection; donors 1-3 on one day and donors 4-6 on another day.
A volume of 180 μL of prediluted whole blood was seeded onto a 96-well tissue culture plate. Then, 20 μL of 10× final test concentration of compounds was added to the assay plate. […] In addition, positive and negative controls were included to show the detection and specification of the assay: 100 μg/mL pre-coated Ultra LEAF mouse anti-human CD3 were used as the positive controls for the assay. […] […] No treatment also served as a negative control for the assay.
After adding the compound(s) to the well, the blood was incubated at 37° C. After centrifugation of the samples, supernatant was collected 24 h post treatment and stored at −80° C. before analysis. The human cytokines ([…], TNF-α, IL-8, IL-6, IL-5, IL-4) released from the assay were quantified with the MSD U-plex kit. The detection limit of each plate is reported from the MSD software, Discovery workbench. Each plate has a slightly different detection limit.

CTLL-2 = CTLL-2 proliferation; type: cell-based

Substance: native IL-2: recombinant human wild-type interleukin-2 (Thermo #PHC0021; R&D Systems 202-IL-500 in Example 12)
- IFN-γ level (Human whole blood; donor D1, 0.03 μg/ml): 64.49
- IL-6 level (Human whole blood; donor D1, 0.03 μg/ml): 7.89
- IL-8 level (Human whole blood; donor D1, 0.03 μg/ml): 2.70
- TNF-α level (Human whole blood; donor D1, 0.03 μg/ml): 3.52
- IFN-γ level (Human whole blood; donor D1, 0.1 μg/ml): 95.61
- IL-6 level (Human whole blood; donor D1, 0.1 μg/ml): 13.48
- IL-8 level (Human whole blood; donor D1, 0.1 μg/ml): 3.80
- TNF-α level (Human whole blood; donor D1, 0.1 μg/ml): 4.60
- IFN-γ level (Human whole blood; donor D1, 0.2 μg/ml): 104.20
- IL-6 level (Human whole blood; donor D1, 0.2 μg/ml): 15.93
- IL-8 level (Human whole blood; donor D1, 0.2 μg/ml): 4.34
- TNF-α level (Human whole blood; donor D1, 0.2 μg/ml): 5.10
- IFN-γ level (Human whole blood; donor D1, 0.8 μg/ml): 115.31
- IL-6 level (Human whole blood; donor D1, 0.8 μg/ml): 22.76
- IL-8 level (Human whole blood; donor D1, 0.8 μg/ml): 5.88
- TNF-α level (Human whole blood; donor D1, 0.8 μg/ml): 5.97
- IFN-γ level (Human whole blood; donor D2, 0.03 μg/ml): 62.13
- IL-6 level (Human whole blood; donor D2, 0.03 μg/ml): 1.07
- IL-8 level (Human whole blood; donor D2, 0.03 μg/ml): 2.50
- TNF-α level (Human whole blood; donor D2, 0.03 μg/ml): 3.88
- IFN-γ level (Human whole blood; donor D2, 0.1 μg/ml): 135.05
- IL-6 level (Human whole blood; donor D2, 0.1 μg/ml): 2.66
- IL-8 level (Human whole blood; donor D2, 0.1 μg/ml): 5.00
- TNF-α level (Human whole blood; donor D2, 0.1 μg/ml): 11.07
- IFN-γ level (Human whole blood; donor D2, 0.2 μg/ml): 228.19
- IL-6 level (Human whole blood; donor D2, 0.2 μg/ml): 5.48
- IL-8 level (Human whole blood; donor D2, 0.2 μg/ml): 5.42
- TNF-α level (Human whole blood; donor D2, 0.2 μg/ml): 12.68
- IFN-γ level (Human whole blood; donor D2, 0.8 μg/ml): 290.42
- IL-6 level (Human whole blood; donor D2, 0.8 μg/ml): 17.26
- IL-8 level (Human whole blood; donor D2, 0.8 μg/ml): 6.00
- TNF-α level (Human whole blood; donor D2, 0.8 μg/ml): 14.38
- IFN-γ level (Human whole blood; donor D3, 0.03 μg/ml): 81.74
- IL-6 level (Human whole blood; donor D3, 0.03 μg/ml): 1.35
- IL-8 level (Human whole blood; donor D3, 0.03 μg/ml): 1.42
- TNF-α level (Human whole blood; donor D3, 0.03 μg/ml): 4.45
- IFN-γ level (Human whole blood; donor D3, 0.1 μg/ml): 224.27
- IL-6 level (Human whole blood; donor D3, 0.1 μg/ml): 2.73
- IL-8 level (Human whole blood; donor D3, 0.1 μg/ml): 3.76
- TNF-α level (Human whole blood; donor D3, 0.1 μg/ml): 10.68
- IFN-γ level (Human whole blood; donor D3, 0.2 μg/ml): 278.17
- IL-6 level (Human whole blood; donor D3, 0.2 μg/ml): 4.12
- IL-8 level (Human whole blood; donor D3, 0.2 μg/ml): 4.01
- TNF-α level (Human whole blood; donor D3, 0.2 μg/ml): 11.74
- IFN-γ level (Human whole blood; donor D3, 0.8 μg/ml): 314.96
- IL-6 level (Human whole blood; donor D3, 0.8 μg/ml): 10.13
- IL-8 level (Human whole blood; donor D3, 0.8 μg/ml): 4.53
- TNF-α level (Human whole blood; donor D3, 0.8 μg/ml): 13.84
- IFN-γ level (Human whole blood; donor D4, 0.03 μg/ml): 45.09
- IL-6 level (Human whole blood; donor D4, 0.03 μg/ml): 2.31
- IL-8 level (Human whole blood; donor D4, 0.03 μg/ml): 1.38
- TNF-α level (Human whole blood; donor D4, 0.03 μg/ml): 2.55
- IFN-γ level (Human whole blood; donor D4, 0.1 μg/ml): 68.31
- IL-6 level (Human whole blood; donor D4, 0.1 μg/ml): 4.02
- IL-8 level (Human whole blood; donor D4, 0.1 μg/ml): 1.60
- TNF-α level (Human whole blood; donor D4, 0.1 μg/ml): 3.16
- IFN-γ level (Human whole blood; donor D4, 0.2 μg/ml): 104.40
- IL-6 level (Human whole blood; donor D4, 0.2 μg/ml): 6.96
- IL-8 level (Human whole blood; donor D4, 0.2 μg/ml): 1.88
- TNF-α level (Human whole blood; donor D4, 0.2 μg/ml): 4.18
- IFN-γ level (Human whole blood; donor D4, 0.8 μg/ml): 81.72
- IL-6 level (Human whole blood; donor D4, 0.8 μg/ml): 19.67
- IL-8 level (Human whole blood; donor D4, 0.8 μg/ml): 2.28
- TNF-α level (Human whole blood; donor D4, 0.8 μg/ml): 4.88
- IFN-γ level (Human whole blood; donor D5, 0.03 μg/ml): 39.50
- IL-6 level (Human whole blood; donor D5, 0.03 μg/ml): 9.18
- IL-8 level (Human whole blood; donor D5, 0.03 μg/ml): 3.95
- TNF-α level (Human whole blood; donor D5, 0.03 μg/ml): 10.86
- IFN-γ level (Human whole blood; donor D5, 0.1 μg/ml): 47.44
- IL-6 level (Human whole blood; donor D5, 0.1 μg/ml): 10.94
- IL-8 level (Human whole blood; donor D5, 0.1 μg/ml): 4.44
- TNF-α level (Human whole blood; donor D5, 0.1 μg/ml): 12.89
- IFN-γ level (Human whole blood; donor D5, 0.2 μg/ml): 51.97
- IL-6 level (Human whole blood; donor D5, 0.2 μg/ml): 12.56
- IL-8 level (Human whole blood; donor D5, 0.2 μg/ml): 4.89
- TNF-α level (Human whole blood; donor D5, 0.2 μg/ml): 15.14
- IFN-γ level (Human whole blood; donor D5, 0.8 μg/ml): 61.31
- IL-6 level (Human whole blood; donor D5, 0.8 μg/ml): 17.12
- IL-8 level (Human whole blood; donor D5, 0.8 μg/ml): 5.80
- TNF-α level (Human whole blood; donor D5, 0.8 μg/ml): 16.45
- IFN-γ level (Human whole blood; donor D6, 0.03 μg/ml): 170.85
- IL-6 level (Human whole blood; donor D6, 0.03 μg/ml): 16.60
- IL-8 level (Human whole blood; donor D6, 0.03 μg/ml): 11.11
- TNF-α level (Human whole blood; donor D6, 0.03 μg/ml): 12.96
- IFN-γ level (Human whole blood; donor D6, 0.1 μg/ml): 387.76
- IL-6 level (Human whole blood; donor D6, 0.1 μg/ml): 28.98
- IL-8 level (Human whole blood; donor D6, 0.1 μg/ml): 17.45
- TNF-α level (Human whole blood; donor D6, 0.1 μg/ml): 16.94
- IFN-γ level (Human whole blood; donor D6, 0.2 μg/ml): 437.67
- IL-6 level (Human whole blood; donor D6, 0.2 μg/ml): 49.09
- IL-8 level (Human whole blood; donor D6, 0.2 μg/ml): 27.24
- TNF-α level (Human whole blood; donor D6, 0.2 μg/ml): 26.06
- IFN-γ level (Human whole blood; donor D6, 0.8 μg/ml): 850.98
- IL-6 level (Human whole blood; donor D6, 0.8 μg/ml): 51.15
- IL-8 level (Human whole blood; donor D6, 0.8 μg/ml): 25.94
- TNF-α level (Human whole blood; donor D6, 0.8 μg/ml): 24.31
- EC50, CTLL-2 proliferation (CTLL-2; Table 4): 0.846 ng/mL
- EC50, CTLL-2 proliferation (CTLL-2; Table 12): 0.4558 ng/mL
